Measurements: patent publication US7964636B2, “Synthesis and use of novel inhibitors and inactivators of protein arginine deiminases” (University of South Carolina, priority 2005, dated 2011)

Protein sequences, listed by entry. Tags and fused reporters are not part of them.
UniProt Q9UM07, whole entry: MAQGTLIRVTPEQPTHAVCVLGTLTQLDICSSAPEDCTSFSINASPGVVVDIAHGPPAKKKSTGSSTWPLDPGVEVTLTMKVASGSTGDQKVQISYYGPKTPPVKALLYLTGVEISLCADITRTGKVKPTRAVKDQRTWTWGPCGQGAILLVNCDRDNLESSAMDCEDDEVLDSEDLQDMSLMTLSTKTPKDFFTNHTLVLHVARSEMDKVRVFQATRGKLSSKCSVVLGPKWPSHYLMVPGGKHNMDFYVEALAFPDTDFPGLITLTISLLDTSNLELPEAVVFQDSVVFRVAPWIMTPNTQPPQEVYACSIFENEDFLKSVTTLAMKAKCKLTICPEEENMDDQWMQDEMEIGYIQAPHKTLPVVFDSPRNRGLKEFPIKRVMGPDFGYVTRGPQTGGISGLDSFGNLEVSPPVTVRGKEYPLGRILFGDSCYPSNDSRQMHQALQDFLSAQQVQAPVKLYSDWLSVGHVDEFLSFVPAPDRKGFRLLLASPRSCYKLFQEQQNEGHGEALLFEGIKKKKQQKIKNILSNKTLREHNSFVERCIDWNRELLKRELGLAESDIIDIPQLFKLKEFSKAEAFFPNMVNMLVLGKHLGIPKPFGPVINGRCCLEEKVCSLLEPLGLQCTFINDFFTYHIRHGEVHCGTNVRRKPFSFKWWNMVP

Molecular target: PAD4 (Homo sapiens, UniProt Q9UM07)
Experiment: IC50 of FIG. 3 compounds 15 and 19
Type: biochemical

IC50	SMILES
25.5 µM	[N-]=[N+]=Nc1ccc(C(=O)N[C@@H](CCCNC(=N)CF)C(N)=O)cc1
6.67 µM	N=C(CCl)NCCCC(NC(=O)c1ccccc1)C(=O)O (centres unmarked)
